Assay results from patent US10844349B2 (Albumedix Ltd., priority 2011, dated 2020).

Legend:
[1] = Insoluble aggregate screening: time for A350 to increase by 0.1 AU at 65° C. (cuvette); format: physicochemical; conditions: for albumin stability (time for A350 to increase by 0.1 AU) with increasing sodium concentration: albumins and variants; for effect of increasing sodium levels on stability: 65° C.
[2] = Soluble aggregates (remaining monomer) by GP-HPLC after 40° C. for 4 weeks; format: physicochemical; conditions: Example 5; albumin 100-250 mg/mL, pH 6.5, 40° C. for 4 weeks
Description: The samples were then aseptically filtered (0.22 μm filter) into sterile 5 mL glass vials and the vials placed in a 40° C. incubator for 4 weeks. An aliquot from each sample was taken out at intervals, diluted to 40 g/L with water and assayed for soluble aggregates by GP-HPLC as per Example 4.

Substance	albumin stability (time for A350 to increase by 0.1 AU) with increasing sodium concentration ([1]; Example 9, pH 6.5, 65° C.)	overall stability compared with HSA ([1]; Example 9, pH 6.5, 65° C.)	monomer content with increasing sodium content [2]	optimum sodium ion concentration [2] [mM]	effect of increasing sodium levels on stability ([1]; Example 1, albumin 10 mg/mL, 25 mM phosphate)	effect of increasing sodium levels on stability ([1]; Example 2, around 200 mM sodium, pH 6.0-7.0, albumin 10 mg/mL)
wild type human serum albumin: mature HSA (SEQ ID NO: 2), spiked with octanoate equivalent to 4 mM at 100 g/L	observed stability increase with sodium is also valid at this level of octanoate					
Mature mouse serum albumin: mouse serum albumin, SEQ ID No: 19	clear trend of increasing stability with increasing sodium concentration at and above 200 mM	not as high as HSA, or HSA variants				
albumin: recombinant human albumin (batch 1401 in Examples 1-4; purified low-octanoate albumin in Examples 5-11)			clear correlation of increasing monomer content	≥ 200	large increase in stability between 145 and 300 mM sodium	sudden increase in stability
